Source: PubChem BioAssay AID1777 (Sanford-Burnham Center for Chemical Genomics, 2009)
Only a part is listed here, and it is no random draw. Measured potencies and affinities stand elsewhere. The source made the active and inactive calls. Rule as the data show it: active = activation above about 50% (passing the limit was not always enough); inactive = the rest.

The chains behind the UniProt entries cited, without tags or fusion partners.
UniProt P41145, whole entry: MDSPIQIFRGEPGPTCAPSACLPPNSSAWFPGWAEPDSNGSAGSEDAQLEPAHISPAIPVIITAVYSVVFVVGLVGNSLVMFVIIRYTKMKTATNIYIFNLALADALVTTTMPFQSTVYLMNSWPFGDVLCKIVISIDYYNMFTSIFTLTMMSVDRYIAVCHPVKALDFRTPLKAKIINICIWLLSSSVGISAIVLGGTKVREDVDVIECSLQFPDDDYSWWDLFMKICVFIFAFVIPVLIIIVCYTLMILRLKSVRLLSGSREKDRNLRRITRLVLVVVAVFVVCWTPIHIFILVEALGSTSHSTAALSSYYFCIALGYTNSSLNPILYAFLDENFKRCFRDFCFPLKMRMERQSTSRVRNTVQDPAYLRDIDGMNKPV

What follows are compounds tested against Kappa-type opioid receptor (Homo sapiens) (UniProt P41145) (assay: KOR agonists, beta-arrestin recruitment, primary screen, cell-based, luminescence, uHTS (AID 1777)). Details: at 10 µM, active compounds read high.
In the case of `O=C(NCC1(N2CCCCC2)CCCCC1)c1cccc(C(F)(F)F)c1`, the activation is reported as inactive: -4.5%. `COc1ccc(NC2CCN(C(=O)OC(C)(C)C)CC2)cc1` was tested, and the activation was inactive: -5.1%. In the case of `CN1CCN(CCOC(=O)C(O)(c2ccccc2)c2ccccc2)CC1`, the activation is reported as inactive: 4.8%. With `O=C(NCC1(N2CCOCC2)CCCCC1)c1cc(=O)[nH]c2ccccc12` the activation was inactive: 1.4%. In the case of `COc1cc(C(=O)NCC2(N3CCCCC3)CCCCC2)ccc1OC(F)F`, the activation is reported as inactive: -7.1%. `O=C(NCC1(N2CCCCC2)CCCCC1)c1ccc(OC(F)F)cc1` was tested, and the activation was inactive: 2.5%. In the case of `O=C(NCC1(N2CCCCC2)CCCCC1)c1cccc([N+](=O)[O-])c1`, the activation is reported as inactive: -2.9%. With `N#CC1(Nc2ccccc2)CCN(CCc2ccccc2)CC1` the activation was inactive: -1.4%. With `CCN1CCC(Nc2ccc(Cl)cc2)CC1` the activation was inactive: 3%. With `CCCOc1ccc(C(=O)NCC2(N(C)C)CCCCC2)cc1OC` the activation was inactive: -1.8%. With `CN(C)c1cccc(C(=O)NCC2(N3CCCCC3)CCCCC2)c1` the activation was inactive: 0%. `CC(C)c1ccc(NC2CCN(C(=O)OC(C)(C)C)CC2)cc1` was tested, and the activation was inactive: -0.8%. `COc1cc(OC)c(C(=O)NCC2(N(C)C)CCCCC2)cc1OC` was tested, and the activation was inactive: -3.4%. In the case of `O=C(NCC1(N2CCOCC2)CCCCC1)c1cc2ccccc2o1`, the activation is reported as inactive: -0.9%. In the case of `Cc1cc(C)cc(N(C(=O)c2ccccc2)C2CCN(C(=O)OC(C)(C)C)CC2)c1`, the activation is reported as inactive: -1.6%. In the case of `CCOC(=O)N1CCC(Nc2ccc(OC)cc2)CC1`, the activation is reported as inactive: -6.4%. In the case of `N#CC1(Nc2ccccc2)CCN(Cc2ccccc2)CC1`, the activation is reported as inactive: -1.9%. `O=C(OC1CN2CCC1CC2)C1c2ccccc2Oc2ccccc21` (stereo not drawn) was tested, and the activation was inactive: -1.9%. In the case of `O=C(NCC1(N2CCCCC2)CCCCC1)c1ccc(=O)[nH]c1`, the activation is reported as inactive: 0.9%. With `COc1ccc(C(=O)NCC2(N3CCCCC3)CCCCC2)c(OC)c1OC` the activation was inactive: 2.6%. With `CC(C)(C)OC(=O)N1CCC(N(C(=O)c2ccccc2)c2ccc(F)cc2)CC1` the activation was inactive: -3.7%. For `COc1ccc(C(=O)NCC2(N3CCCCC3)CCCCC2)cc1`, the activation was inactive: -0.3%. With `CSc1ccccc1C(=O)NCC1(N2CCCCC2)CCCCC1` the activation was inactive: 0.3%. In the case of `Cc1ccc(OCC(C)C)c(CN(CCCl)CCCl)c1`, the activation is reported as inactive: 6%. `CCOC(=O)N1CCC(Nc2cccc(C)c2)CC1` was tested, and the activation was inactive: 3.8%. With `COc1cc(C(=O)NCC2(N(C)C)CCCCC2)ccc1OC(F)F` the activation was inactive: -3.9%. `CCOc1ccc(C)cc1CN(CCCl)CCCl` was tested, and the activation was inactive: 2.2%. With `CCOC(=O)N1CCC(Nc2ccc(F)cc2)CC1` the activation was inactive: 5.5%. `COc1ccc(NC2CCN(CCc3ccccc3)CC2)c(OC)c1` was tested, and the activation was inactive: 4.5%. In the case of `O=C(NCC1(N2CCCCC2)CCCCC1)c1ccc(F)cc1`, the activation is reported as inactive: -0.1%. For `CCN1CCC(Nc2cccc(F)c2)CC1`, the activation was inactive: 0.2%. In the case of `CN(C)c1ccc(C(=O)NCC2(N3CCCCC3)CCCCC2)cc1`, the activation is reported as inactive: 0%. For `COc1cc(OC)cc(C(=O)NCC2(N3CCCCC3)CCCCC2)c1`, the activation was inactive: 1%. For `Fc1ccccc1NC1CCN(Cc2ccccc2)CC1`, the activation was inactive: 0.7%. With `CCC(CO)(C(=O)OC1CN2CCC1CC2)c1ccccc1` (stereo not drawn) the activation was inactive: 3%. In the case of `COc1cccc(C(=O)N(c2cc(C)cc(C)c2)C2CCN(C(=O)OC(C)(C)C)CC2)c1`, the activation is reported as inactive: 0.3%. For `COc1cc(OC)cc(C(=O)NCC2(N3CCOCC3)CCCCC2)c1`, the activation was inactive: 2.5%. With `CCCOc1ccc(C)cc1CN(CCCl)CCCl` the activation was inactive: 12.4%. In the case of `CN1CCC(Nc2ccc(Cl)cc2)CC1`, the activation is reported as inactive: 3.9%. In the case of `CN1CCC(Nc2ccc(F)c(Cl)c2)CC1`, the activation is reported as inactive: 0.4%. `CCOc1ncccc1C(=O)NCC1(N2CCOCC2)CCCCC1` was tested, and the activation was inactive: -1.1%. In the case of `CCCOc1ccc(C(=O)NCC2(N(C)C)CCCCC2)cc1`, the activation is reported as inactive: -2.3%. With `O=C(O)C1(Nc2ccccc2)CCN(Cc2ccccc2)CC1` the activation was inactive: -2%. With `CC(C)(C)OC(=O)N1CCC(Nc2ccccc2)CC1` the activation was inactive: -3.4%. With `N/C(=N\O)c1c(N)no[n+]1[O-]` the activation was inactive: -0.7%. With `CCOC(=O)N1CCC(Nc2ccc(C)cc2)CC1` the activation was inactive: 6.3%. In the case of `O=C(OC1CN2CCC1CC2)C1c2ccccc2C=Cc2ccccc21` (stereo not drawn), the activation is reported as inactive: 5.7%. In the case of `COc1ccc(C(=O)NCC2(N3CCOCC3)CCCCC2)cc1OC`, the activation is reported as inactive: -3.2%. For `CCCN1CCC(Nc2cc(OC)cc(OC)c2)CC1`, the activation was inactive: 1.9%. With `c1ccc(CN2CCC(Nc3ccccc3)CC2)cc1` the activation was inactive: -0.9%. `CN(C)C1(CNC(=O)c2cccc(C#N)c2)CCCCC1` was tested, and the activation was inactive: 0%. With `CC(C)(C)OC(=O)N1CCC(N(C(=O)c2ccccc2)c2ccc(Cl)cc2)CC1` the activation was inactive: -1.9%. `N#Cc1ccc(C(=O)NCC2(N3CCCCC3)CCCCC2)cc1` was tested, and the activation was inactive: 5.5%.
